This series deals with H22 liver cancer tumor tissue. Conditions: H22 liver cancer tumor-bearing mice, tumors taken after killing, small animal fluorescence imaging.

For “modified pectin-PEG8-VAPABC-adriamycin [pectin-adriamycin conjugate]”, the “adriamycin fluorescence in tumor tissue” value is “strong adriamycin fluorescence”.

Source of the values: patent publication US11596643B2, “Pectin-adriamycin conjugate as well as preparation method and use thereof” (Sichuan Yingrui Pharmaceutical Technology Company, priority 2019, dated 2023).
